# pIC50: −log10 of the molar value.
# The chains behind the UniProt entries cited, without tags or fusion partners. Where a name states a change or a piece, a line headed by the entry shows the natural chain unless it says otherwise.
# UniProt Q9Y5Y4: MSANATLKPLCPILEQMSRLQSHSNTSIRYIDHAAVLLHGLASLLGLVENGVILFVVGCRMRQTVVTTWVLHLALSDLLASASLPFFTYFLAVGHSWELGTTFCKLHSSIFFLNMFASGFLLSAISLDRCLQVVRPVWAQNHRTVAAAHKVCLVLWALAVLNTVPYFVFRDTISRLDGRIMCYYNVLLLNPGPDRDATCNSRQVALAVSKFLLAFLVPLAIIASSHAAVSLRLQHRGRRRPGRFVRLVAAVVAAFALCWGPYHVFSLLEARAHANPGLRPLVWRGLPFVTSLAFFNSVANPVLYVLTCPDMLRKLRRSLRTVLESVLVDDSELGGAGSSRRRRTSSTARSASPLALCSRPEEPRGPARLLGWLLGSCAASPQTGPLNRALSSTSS
# Key:
# [1] = molecular target: T1, hCRTH2 receptor (Homo sapiens (Human), UniProt Q9Y5Y4); assay: hCRTH2 receptor membranes radioligand (3H-PGD2) displacement assay; conditions: 3H-PGD2 2.5 nM, HEK293-hCRTH2 membrane fragments, Binding-Buffer with 0.1% BSA
# Method: (§1) First, recombinant HEK293-hCRTH2 cells were detached from culture plates into 5 ml buffer A/plate (Buffer A: 5 mM Tris, 1 mM MgCl2-6H2O pH=7.4) using a rubber policeman. Cells were then transferred into centrifugation tubes and centrifuged for 5 min at 400 g. The cell pellet was resuspended in the same buffer and tubes were frozen at −80° C. Cells were thawed and membrane fragments were generated by homogenization using a polytron homogenizer (30 seconds). The membrane fragments were then centrifuged at 3000 g for 20 minutes and resuspended in buffer C (Buffer C: 75 mM Tris, 25 mM MgCl2, 250 mM Saccharose pH 7.4). Aliquots of membrane fragments were stored at −20° C.
# Binding assay was performed in a final assay volume of 250 μl. First, 25 μl of test compound, previously diluted in Binding-Buffer (Binding-Buffer: 50 mM Tris-Base, 100 mM NaCl, 1 mM EDTA, 0.1% BSA (protease free), 0.01% NaN3, 10 mM MnCl2 pH 7.0) was placed into each well. After addition of 75 μl Binding-Buffer, 50 μl of the radioligand ^3H-PGD2 (at 2.5 nM (220.000 dpm/well) from ANAWA ART0662) was added to each well. Binding assay was started by addition of 100 μl CRTH2 membrane fragments, reaching a final concentration of 20 μg/well. […] Then, 40 μl of Microscint-40 (Packard) was added to each well and the retained radioactivity quantified in a Topcount (Packard).
# [2] = molecular target: T1, hCRTH2 receptor; assay: Radioligand displacement assay in presence of human serum albumin (HSA); conditions: 3H-PGD2 2.5 nM, HEK293-hCRTH2 membrane fragments, Binding-Buffer-HSA with 0.5% human serum albumin instead of 0.1% BSA
# Method: as §1
# Binding assay was performed in a final assay volume of 250 μl. First, 25 μl of test compound, previously diluted in Binding-Buffer (Binding-Buffer: 50 mM Tris-Base, 100 mM NaCl, 1 mM EDTA, 0.1% BSA (protease free), 0.01% NaN3, 10 mM MnCl2 pH 7.0) was placed into each well. After addition of 75 μl Binding-Buffer, 50 μl of the radioligand ^3H-PGD2 (at 2.5 nM (220.000 dpm/well) from ANAWA ART0662) was added to each well. Binding assay was started by addition of 100 μl CRTH2 membrane fragments, reaching a final concentration of 20 μg/well. For non-specific binding, PGD2 was added to the reaction mixture to […] final concentration. This assay mix was incubated for 90 minutes at room temperature and then filtered through a GF/C filter 96-well plate which was pre-soaked for 3 hours in 0.5% polyethyleneimine (PEI). The filter-wells were washed three times with ice cold Binding-Buffer. Then, 40 μl of Microscint-40 (Packard) was added to each well and the retained radioactivity quantified in a Topcount (Packard).
# Radioligand displacement assay in presence of human serum albumin (HSA) was performed as described above, with following modifications. Binding-Buffer-HSA: Binding-buffer+0.5% Sigma Albumin from Human serum A1887 (instead of 0.1% BSA). A volume of 25 μl test compound, previously diluted in Binding-Buffer-HSA was placed into each well. […]
smiles,measurement,setting,value
"CN(c1ncc(F)cn1)C1CCc2c(CC(=O)O)c3ccc(Cl)cc3n2C1 (centres unmarked) [Example 30, 2-(3-chloro-7-((5-fluoropyrimidin-2-yl)(methyl)amino)-6,7,8,9-tetrahydropyrido[1,2-a]indol-10-yl)acetic acid]",pIC50,[1],8.00
same,pIC50,[2],8.05
"CN(c1ncc(F)cn1)[C@H]1CCc2c(CC(=O)O)c3ccc(Cl)cc3n2C1 [Example 32, (S)-2-(3-chloro-7-((5-fluoropyrimidin-2-yl)(methyl)amino)-6,7,8,9-tetrahydropyrido[1,2-a]indol-10-yl)acetic acid]",pIC50,[1],9.10
same,pIC50,[2],8.70
"CN(c1ncc(F)cn1)[C@@H]1CCc2c(CC(=O)O)c3ccc(Cl)cc3n2C1 [Example 33, (R)-2-(3-chloro-7-((5-fluoropyrimidin-2-yl)(methyl)amino)-6,7,8,9-tetrahydropyrido[1,2-a]indol-10-yl)acetic acid]",pIC50,[2],7.24
